Antibody variant affinities, Ab-14 heavy chain, assay B

Reference: Li et al. 2023, doi:10.1038/s41467-023-39022-2. File: FLAb, binding data.

The target is the same throughout: PDVDLGDISGINAS, from the HR2 region of SARS-CoV-2 spike.

Parent: Ab-14, a human scFv built as VH, a (GGGGS)3 linker, VL. Only the CDRs of the heavy chain vary.
VH: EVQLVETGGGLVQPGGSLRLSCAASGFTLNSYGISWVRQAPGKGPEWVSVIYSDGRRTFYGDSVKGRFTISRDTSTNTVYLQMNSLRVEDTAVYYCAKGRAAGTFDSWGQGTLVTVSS
VL: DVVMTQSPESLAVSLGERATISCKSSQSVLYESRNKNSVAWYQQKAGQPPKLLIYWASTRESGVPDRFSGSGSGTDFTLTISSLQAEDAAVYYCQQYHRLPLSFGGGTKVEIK

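Designed CDR sequences, proposed from the first random library and measured here. Several design methods are mixed in this list. Affinity was read by AlphaSeq, a pooled yeast mating assay with surface-displayed partners. After mating in shaken culture at 30 °C for 16 h, diploids were selected and their barcode pairs sequenced. Scores were corrected for input abundance and mapped to Kd with protein pairs of known affinity run in the same pool. There are six technical replicates.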

Each variant's VH is given in full. This list holds designs with at most six substitutions. Affinities are written as log10 Kd with Kd in nM; a lower number is a better binder. The mean shown is taken over the replicates in which the pair was detected. "no signal" means that the variant was in the library but no mating with the target was seen in any replicate; the authors take this as a sign of poor binding, and no number exists. Values of this round are not directly comparable with the first-round values of the same sequences.

* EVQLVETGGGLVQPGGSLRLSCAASGMTLNEYGISWVRQAPGKGPEWVSVIYSDGRRTFIGDSVKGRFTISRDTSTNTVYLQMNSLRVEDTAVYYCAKGEAAGTFLSWGQGTLVTVSS = no signal (0 of 6 replicates; controls 0 of 18)
* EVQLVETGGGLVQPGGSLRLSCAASGFTLNSYGISWVRQAPGKGPEWVSVIYSDGRRTFYGDSVKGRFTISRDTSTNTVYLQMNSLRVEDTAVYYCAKGKGAGTFDSWGQGTLVTVSS = no signal (0 of 6 replicates; controls 0 of 18)
* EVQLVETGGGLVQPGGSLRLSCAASGFTLDSYGISWVRQAPGKGPEWVSVIYSDGRRTFYADSVKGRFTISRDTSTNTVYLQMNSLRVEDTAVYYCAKGRVAGTFDTWGQGTLVTVSS = 0.09 (6 of 6 replicates; controls 0 of 18)
* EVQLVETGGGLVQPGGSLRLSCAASGFHLNSYGISWVRQAPGKGPEWVSVIYSDGRRTFYVDSVKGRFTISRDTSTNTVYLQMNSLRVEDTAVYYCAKGEAAGTFDSWGQGTLVTVSS = 1.40 (2 of 6 replicates; controls 0 of 18)
* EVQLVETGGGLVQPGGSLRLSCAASGFTLNEYGISWVRQAPGKGPEWVSVIYSDGKRTFYGDSVKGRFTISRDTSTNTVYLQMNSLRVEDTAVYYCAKGRAAGTFDSWGQGTLVTVSS = 0.18 (6 of 6 replicates; controls 0 of 18)
* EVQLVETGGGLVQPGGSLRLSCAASGFTLNDYGISWVRQAPGKGPEWVSVIYSDGRRTFYGDSVKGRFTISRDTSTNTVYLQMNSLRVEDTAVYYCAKGRMAGTFSSWGQGTLVTVSS = 2.64 (4 of 6 replicates; controls 0 of 18)
* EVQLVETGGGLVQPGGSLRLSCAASGFTLNSYGISWVRQAPGKGPEWVSVIYSDGRRTFYGDSVKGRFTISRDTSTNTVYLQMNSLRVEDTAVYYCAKGRAPGTFNSWGQGTLVTVSS = no signal (0 of 6 replicates; controls 0 of 18)
* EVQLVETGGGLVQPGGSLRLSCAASGFTLNEYGISWVRQAPGKGPEWVSVIYSDGRRTFYGDNVKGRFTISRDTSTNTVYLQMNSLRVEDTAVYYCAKGRAAVTFDQWGQGTLVTVSS = no signal (0 of 6 replicates; controls 0 of 18)
* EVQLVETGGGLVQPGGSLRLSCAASGFTLNSYGISWVRQAPGKGPEWVSVIYADGRRTHYHDSVKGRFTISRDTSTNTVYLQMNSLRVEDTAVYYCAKGKAAGTFDSWGQGTLVTVSS = 0.34 (6 of 6 replicates; controls 0 of 18)
* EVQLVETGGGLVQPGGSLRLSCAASGFELNDYGISWVRQAPGKGPEWVSVIYSDGRRTFYGDSVKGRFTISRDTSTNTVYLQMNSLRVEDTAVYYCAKGKTAGTFDTWGQGTLVTVSS = -0.19 (6 of 6 replicates; controls 0 of 18)
* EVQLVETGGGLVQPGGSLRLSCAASGFSLNEYGISWVRQAPGKGPEWVSVIYSDGRRTFYSDSVKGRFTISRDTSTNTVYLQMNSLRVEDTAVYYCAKGRAAVTFDQWGQGTLVTVSS = no signal (0 of 6 replicates; controls 0 of 18)
* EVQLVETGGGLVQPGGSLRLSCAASGFSLNEYGISWVRQAPGKGPEWVSVIYSDGRRTFYKDSVKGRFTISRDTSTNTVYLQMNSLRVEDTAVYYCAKGRTAGTFDTWGQGTLVTVSS = -0.34 (6 of 6 replicates; controls 0 of 18)
* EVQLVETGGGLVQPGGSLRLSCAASGFSLNSYGISWVRQAPGKGPEWVSVIYSDGRRTSYGDSVKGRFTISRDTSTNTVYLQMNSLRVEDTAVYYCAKGRAAGTFDSWGQGTLVTVSS = 0.89 (6 of 6 replicates; controls 0 of 18)
* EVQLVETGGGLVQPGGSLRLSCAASLFQLNSYGISWVRQAPGKGPEWVSVIYSDGRRTFYGDSVKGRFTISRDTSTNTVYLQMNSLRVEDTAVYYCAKGRAAGTFDSWGQGTLVTVSS = no signal (0 of 6 replicates; controls 0 of 18)
* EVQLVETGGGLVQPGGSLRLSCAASGFTLNDYGISWVRQAPGKGPEWVSVIYSDGRRTFYTDSVKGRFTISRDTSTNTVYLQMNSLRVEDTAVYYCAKGREAGTFDVWGQGTLVTVSS = 0.25 (6 of 6 replicates; controls 0 of 18)
* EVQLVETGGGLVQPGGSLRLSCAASGFTLNSYGISWVRQAPGKGPEWVSVIYSDGRRTAYGDSVKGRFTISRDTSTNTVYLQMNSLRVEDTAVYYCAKGRAAGTFDLWGQGTLVTVSS = 0.96 (6 of 6 replicates; controls 1 of 18)
* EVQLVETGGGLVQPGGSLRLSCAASGFTLNSYGISWVRQAPGKGPEWVSVIYSDGRRQFYGDSVKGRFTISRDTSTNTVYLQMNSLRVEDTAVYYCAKGWAAGTSDSWGQGTLVTVSS = no signal (0 of 6 replicates; controls 0 of 18)

The 2 strongest on average among those seen in every replicate, once more:

{"VH": "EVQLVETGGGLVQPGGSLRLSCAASGFSLNEYGISWVRQAPGKGPEWVSVIYSDGRRTFYKDSVKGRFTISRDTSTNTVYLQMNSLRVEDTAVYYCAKGRTAGTFDTWGQGTLVTVSS", "mean, log10 nM": "-0.34", "seen in": "6/6", "signal with controls": "0/18"}
{"VH": "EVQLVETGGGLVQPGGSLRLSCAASGFELNDYGISWVRQAPGKGPEWVSVIYSDGRRTFYGDSVKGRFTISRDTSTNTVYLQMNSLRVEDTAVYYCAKGKTAGTFDTWGQGTLVTVSS", "mean, log10 nM": "-0.19", "seen in": "6/6", "signal with controls": "0/18"}

Of ten entries with the parent sequence, four were seen in most replicates (averages 0.34 to 2.37), three in one and three in none, so single entries are noisy. Nonspecific signal, from three strains lacking the peptide, appeared in 1% of pairings of all heavy chain designs, centred on 2.08 (5% of these signals below 0.84); values are not corrected for it. For each scFv, signals with the empty controls are counted beside the result. In the paper, a design with two or fewer of six values counts as a poor binder.